From PMC5724689, “Increased Conformational Flexibility of a Macrocycle–Receptor Complex Contributes to Reduced Dissociation Rates” (Chemistry (Weinheim an Der Bergstrasse, Germany), 2017)

Key:
[1] = molecular target: T1, 14-3-3ζ (14‐3‐3 isoform ζ) (Homo sapiens, UniProt P63104); test: biochemical; format: binding; details: ITC; for K / T*ΔS / ΔG / ΔH / ΔS: T = 303.15 K
T1 construct: 14-3-3ζ (aa 1-245) with remaining His-Tag; made in house
T1 sequence (P63104 1-245): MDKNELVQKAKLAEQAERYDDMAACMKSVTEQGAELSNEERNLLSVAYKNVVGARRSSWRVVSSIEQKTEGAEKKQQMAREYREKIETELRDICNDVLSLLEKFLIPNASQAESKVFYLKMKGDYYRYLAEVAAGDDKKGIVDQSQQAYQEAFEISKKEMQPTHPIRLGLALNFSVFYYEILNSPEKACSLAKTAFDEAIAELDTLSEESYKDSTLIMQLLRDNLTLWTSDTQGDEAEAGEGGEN

[2] = molecular target: T1, 14-3-3ζ (14‐3‐3 isoform ζ); test: biochemical; format: binding

CC(C)C[C@H](NC(=O)CNC(=O)[C@H](CCC(N)=O)NC(=O)CNC(=O)C(F)(F)F)C(=O)N[C@@H](CC(C)C)C(=O)N[C@@H](CC(=O)O)C(=O)N[C@@H](C)C(=O)N[C@@H](CC(C)C)C(=O)N[C@@H](CC(=O)O)C(=O)N[C@@H](CC(C)C)C(=O)N[C@@H](C)C(=O)N[C@@H](CO)C(N)=O [L]
Kd ([1]; 30°C, 15 µM 14-3-3ζ (aa 1-245, His-Tag), 10 mM HEPES, 150 mM NaCl, 0.5 mM tris(2-carboxyethyl)phosphine, pH 7.4, triplicate, error = standard deviation 1σ, read-out: dissociation constant Kd (ITC)): 650 nM | binding enthalpy ΔH ([1]; 30°C, pH 7.4, fluorine-labeled ligands, mean of three runs): -9.81 kcal/mol | K ([1]; pH 7.4, mean value of 3 runs): 1.56E+06 | T*ΔS ([1]; pH 7.4, mean value of 3 runs): 1217 cal/mol | ΔG ([1]; pH 7.4, mean value of 3 runs): -8588 cal/mol | ΔH ([1]; pH 7.4, mean value of 3 runs): -9805 cal/mol | ΔS ([1]; pH 7.4, mean value of 3 runs): -4.0 cal mol-1 K-1 | K ([1]; pH 7.4, run1): 1.33E+06 | T*ΔS ([1]; pH 7.4, run1): 1464 cal/mol | ΔG ([1]; pH 7.4, run1): -8495 cal/mol | ΔH ([1]; pH 7.4, run1): -9959 cal/mol | ΔS ([1]; pH 7.4, run1): -4.8 cal mol-1 K-1 | K ([1]; pH 7.4, run2): 1.54E+06 | T*ΔS ([1]; pH 7.4, run2): 1443 cal/mol | ΔG ([1]; pH 7.4, run2): -8587 cal/mol | ΔH ([1]; pH 7.4, run2): -10030 cal/mol | ΔS ([1]; pH 7.4, run2): -4.8 cal mol-1 K-1 | K ([1]; pH 7.4, run3): 1.82E+06 | T*ΔS ([1]; pH 7.4, run3): 743 cal/mol | ΔG ([1]; pH 7.4, run3): -8682 cal/mol | ΔH ([1]; pH 7.4, run3): -9425 cal/mol | ΔS ([1]; pH 7.4, run3): -2.5 cal mol-1 K-1 | allosteric cooperativity (in words) ([2]; 19F NMR line shape analysis, pH 7.4, room temperature): no evidence for allosteric cooperativity | koff ([2]; 19F NMR line shape analysis, slow exchange, 50 mM HEPES, 100 mM NaCl, 2 mM MgCl2, 1% DMSO, 10% D2O, pH 7.4, room temperature, error from fitting procedure (Equation S1), read-out: dissociation rate koff (NMR)): 0.89 s⁻¹ | 19F NMR linewidth ν0.5 of the bound state (decrease correlates with increased flexibility) ([2]; 19F NMR, ligand bound to 14-3-3, 600 MHz, pH 7.4, room temperature): 33.5 Hz | association rate kon = koff × Kd^-1 (Figure 2b) ([2]; calculated from koff (19F NMR) and ITC-derived Kd): 1.36 ±0.22 s^-1M^-1 10^6 | kon ([2]; calculated from koff (19F NMR) and ITC-derived Kd, read-out: association rate kon = koff × Kd^-1): 1.36e+06 M⁻¹ s⁻¹
